The chains behind the UniProt entries cited, without tags or fusion partners. Residues count along the entry.
UniProt P22303, 32-614 limits assumed: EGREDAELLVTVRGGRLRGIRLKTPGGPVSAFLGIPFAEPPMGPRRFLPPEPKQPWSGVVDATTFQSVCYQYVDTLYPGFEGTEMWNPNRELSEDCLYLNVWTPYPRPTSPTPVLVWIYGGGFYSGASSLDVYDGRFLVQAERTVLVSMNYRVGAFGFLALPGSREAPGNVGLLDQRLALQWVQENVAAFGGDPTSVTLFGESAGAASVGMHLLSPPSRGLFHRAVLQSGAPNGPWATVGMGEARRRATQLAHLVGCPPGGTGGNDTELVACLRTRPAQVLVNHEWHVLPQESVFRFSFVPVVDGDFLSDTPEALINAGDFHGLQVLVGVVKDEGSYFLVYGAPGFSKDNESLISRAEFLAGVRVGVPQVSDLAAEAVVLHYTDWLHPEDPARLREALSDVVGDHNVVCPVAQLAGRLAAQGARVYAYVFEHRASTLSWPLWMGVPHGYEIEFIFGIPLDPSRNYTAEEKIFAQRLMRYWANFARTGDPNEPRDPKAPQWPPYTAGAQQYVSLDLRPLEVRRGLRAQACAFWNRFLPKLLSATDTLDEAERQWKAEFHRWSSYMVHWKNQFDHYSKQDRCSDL

According to ChEMBL document CHEMBL3351781, “Assessment of antidotal efficacy of cholinesterase reactivators against paraoxon: In vitro reactivation kinetics and physicochemical properties” (2014):

Target: Acetylcholinesterase (Homo sapiens, UniProt P22303)
Experiment: Binding affinity to paraoxon-inhibited AChE (unknown origin)

**Q.** With `C[n+]1ccc(/C=N/O)cc1` as the compound, how does the Kd read?
**A.** Its Kd is 96.2 µM.
